Data on 103 molecules can be found in PubChem BioAssay AID493098 (Sanford-Burnham Center for Chemical Genomics, 2011).

Amino acid sequences for entries named in this document (tags omitted). A change or cut given only in a name is not applied to a line headed by its entry.
UniProt P51684: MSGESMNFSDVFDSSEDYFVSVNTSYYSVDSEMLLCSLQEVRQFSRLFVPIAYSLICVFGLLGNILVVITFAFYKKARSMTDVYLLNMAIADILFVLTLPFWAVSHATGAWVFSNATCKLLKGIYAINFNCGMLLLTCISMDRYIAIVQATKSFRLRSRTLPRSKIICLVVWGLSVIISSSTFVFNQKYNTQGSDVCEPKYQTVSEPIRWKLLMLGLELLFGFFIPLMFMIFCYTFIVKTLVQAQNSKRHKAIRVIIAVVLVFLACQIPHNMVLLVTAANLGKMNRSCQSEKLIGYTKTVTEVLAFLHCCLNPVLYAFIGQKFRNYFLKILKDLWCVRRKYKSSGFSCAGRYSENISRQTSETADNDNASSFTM

This is a selection; strong and weak results do not stand in their true shares. Activity calls are given as the source filed them.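 How the source made its calls: active means compounds whose inhibition of the agonist-driven luminescence signal at 20 µM reaches about 50% (limit read from the data); inactive means the rest.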

For this assay, the target named is C-C chemokine receptor type 6 (Homo sapiens) (UniProt P51684). The experiment in a line: blockers of CCL20-driven beta-arrestin recruitment to CCR6 – cell-based, CHO-K1, luminescence, uHTS, primary screen (AID 493098).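 Further: cells stimulated with CCL20 at 14 nM final; plate controls were DMSO with CCL20 for no effect and DMSO without agonist for full effect.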 The settings on record: CHO-K1 CCR6 PathHunter beta-arrestin, CCL20-stimulated, at 20 µM, hits give high values.
With `O=C(Nc1cc([As](=O)(O)O)ccc1O)c1ccccc1`, the inhibition was inactive: -1.24%.

Consider `O=P1(N(CCCl)CCCl)OCCCS1` (stereo not drawn), for which the inhibition is inactive: 5.4%.

For `O=C(O)CNc1ccc([As](=O)(O)O)cc1`, the inhibition was inactive: -1.26%.

On to `O=[N+]([O-])c1cccc(NC2=NCC(CBr)S2)c1` (stereo not drawn), for which the inhibition was inactive: 3.36%.

In the case of `COC(=O)C1(C)COP(=O)(Nc2ccccc2)OC1` (stereo not drawn), the inhibition is inactive: 5.85%.

Regarding `O=[N+]([O-])c1ncn(CCn2ncnc2[N+](=O)[O-])n1`, the inhibition was inactive: -5.07%.

For `CC(C)(C)C(=O)NC(Sc1ccncn1)C(Cl)(Cl)Cl` (stereo not drawn), the inhibition is inactive: 4.77%.

In the case of `CCc1nc2c(n1)c1c(non1O)c1c2no[n+]1[O-]`, the inhibition was inactive: 10.6%.

Consider `O=[N+]([O-])c1cc([N+](=O)[O-])c(CCNc2ccccc2)c([N+](=O)[O-])c1`, for which the inhibition is inactive: 13.8%.

For the molecule `Cc1ccc(NP(=O)(Oc2ccccc2)Oc2ccccc2)nc1`, the inhibition is inactive: 9.04%.

With `O=[N+]([O-])c1cccc2n[nH]nc12`, the inhibition is inactive: 4.03%.

On to `CC(=O)N1C2C3N(C(C)=O)C1C1N(C(C)=O)C(C(N1C(C)=O)N3C(C)=O)N2C(C)=O`, for which the inhibition was inactive: 2.75%.

`COc1ccc(C2=NCC(CBr)S2)cc1` (stereo not drawn): the inhibition was inactive: 8.5%.

On to `CC1CCN(C(=O)Oc2c(Cl)cc(Cl)c3cccnc23)CC1`, for which the inhibition was inactive: 19.3%.

On to `CN(C)C(=O)OCCc1n(C)cc[n+]1C`, for which the inhibition was inactive: -16.1%.

Turning to `CC(C)=N/N=C(\N)N[N+](=O)[O-]`, the inhibition is inactive: 0.88%.

As to `CCN(/C(=N/P(=O)(N1CCOCC1)N1CCOCC1)N1CCOCC1)c1ccc(OC)cc1`, the inhibition is inactive: -2.38%.

As to `C[N+]1=C2C=CC=CC=C2SC12C([N+](=O)[O-])=CC([N+](=O)[O-])=C[C-]2[N+](=O)[O-]` (stereo not drawn), the inhibition was active: 95%.

Turning to `Nc1ccc([As](=O)(O)c2ccc(N)cc2)cc1`, the inhibition was inactive: 11.6%.

Take `Clc1ccc(Cl)c(NC2=NCC(CBr)S2)c1` (stereo not drawn): the inhibition was inactive: 16.1%.

With `CN1CCCC(OC(=O)C(c2ccccc2)c2ccccc2)C1` (stereo not drawn), the inhibition is inactive: -9.28%.

For `Cc1ccc(OP(=O)(Nc2nccs2)Oc2ccc(C)cc2)cc1`, the inhibition was inactive: 13.2%.

On to `COc1ccccc1OP(=O)(Nc1ccc(C)cn1)Oc1ccccc1OC`, for which the inhibition was inactive: 1.74%.

For `Cc1ccc(N/C(=N/P(=O)(N2CCOCC2)N2CCOCC2)N2CCOCC2)cc1`, the inhibition is inactive: 2.17%.

Consider `CN(C(=O)Cc1ccc(Cl)c(Cl)c1)[C@H]1CCCC[C@H]1N1CCCC1`, for which the inhibition is inactive: 11.9%.

On to `NC(=O)c1cc([N+](=O)[O-])cc([N+](=O)[O-])c1N`, for which the inhibition is inactive: -14.6%.

Regarding `O=C(NC(Sc1ccncn1)C(Cl)(Cl)Cl)c1ccccc1` (stereo not drawn), the inhibition is inactive: -4.6%.

As for `Oc1ccccc1CNc1ccccn1`, the inhibition was inactive: 0.27%.

`CC(C)CC(=O)NC(Sc1ccc(Cl)cc1)C(Cl)(Cl)Cl` (stereo not drawn): the inhibition is inactive: 12%.

On to `Nc1cc(N)c2nonc2c1[N+](=O)[O-]`, for which the inhibition was inactive: -7.59%.

Regarding `Cc1ccc(NP(=O)(Oc2ccccc2F)Oc2ccccc2F)nc1`, the inhibition was inactive: 4.76%.

As for `CN(C(=O)Cc1ccc(Cl)c(Cl)c1)[C@H]1CCCC[C@@H]1N1CCCC1`, the inhibition is inactive: 8.5%.

With `CCOP(=O)(Nc1ccccc1)OCC`, the inhibition is inactive: 10.2%.

Take `Cc1cc(SC(NC(=O)c2ccc(F)cc2)C(Cl)(Cl)Cl)ncn1` (stereo not drawn): the inhibition is inactive: -4.42%.

Regarding `O=P(Nc1nc2ccc(Cl)cc2s1)(c1ccccc1)c1ccccc1`, the inhibition was inactive: 15.9%.

Consider `CCCC1OP(N)(=O)OCC1CC` (stereo not drawn), for which the inhibition is inactive: 3.84%.

With `O=C(O)c1ccccc1[As](=O)(O)O`, the inhibition is inactive: 13.6%.

Regarding `CC(=O)Nc1ccc([As](=O)(O)O)cc1`, the inhibition was inactive: -6.24%.

For the molecule `Nc1cccc2ccc([As](=O)(O)O)cc12`, the inhibition is inactive: -8.54%.

Turning to `CCN(N=Nc1nonc1N)c1nonc1N`, the inhibition is inactive: 8.7%.

For the molecule `O=P1(N(CCCl)CCCl)OCCC2CCCCN21` (stereo not drawn), the inhibition is inactive: -0.53%.

As to `Cc1ccc(NP(=O)(Oc2cccc(C)c2)Oc2cccc(C)c2)nc1`, the inhibition is inactive: 0.88%.

As to `c1ccc(-c2nn[nH]n2)c(-c2nn[nH]n2)c1`, the inhibition is inactive: 12.7%.

As to `CCNC(=S)/N=C(\N)N[N+](=O)[O-]`, the inhibition is inactive: 18.8%.

On to `O=C(NC1CCS(=O)(=O)C1)NP(=S)(Oc1ccccc1)Oc1ccccc1` (stereo not drawn), for which the inhibition was inactive: -7.01%.

With `CN(C)C(=O)Oc1noc2ccccc12`, the inhibition is inactive: 0.69%.

As for `O=c1c2cc([N+](=O)[O-])ccc2[nH]c2c([N+](=O)[O-])cc([N+](=O)[O-])cc12`, the inhibition was active: 61.2%.

Take `Cc1ccccc1OP(=O)(Nc1ccccn1)Oc1ccccc1C`: the inhibition is inactive: 16.1%.

As to `CC(NC(=O)COC(=O)C(O)(c1ccccc1)c1ccccc1)c1ccccc1` (stereo not drawn), the inhibition was inactive: 12.1%.

As to `CCC(=O)N1C2C3N(C(=O)CC)C1C1N(C(=O)CC)C(C(N1C(=O)CC)N3C(=O)CC)N2C(=O)CC`, the inhibition was inactive: -2.18%.

For the molecule `O=C(OC1CN2CCC1CC2)c1ccccc1` (stereo not drawn), the inhibition was inactive: 16%.

With `Cc1ccc(OP(=O)(Nc2ccccn2)Oc2ccc(C)cc2)cc1`, the inhibition was inactive: 1.48%.

As for `CC(=O)NC(SC(=S)N(CC(C)C)CC(C)C)C(Cl)(Cl)Cl` (stereo not drawn), the inhibition was inactive: 15%.

Consider `COC(=O)c1cc2c(s1)N=C(c1ccccc1)N(C)P2(=O)N1CCOCC1` (stereo not drawn), for which the inhibition was inactive: 20.2%.

With `CC(C)(C)C(=O)NC(Sc1ccccc1)C(Cl)(Cl)Cl` (stereo not drawn), the inhibition was inactive: 7.65%.

Turning to `CCc1cc(O)c([N+](=O)[O-])c(C)c1[N+](=O)[O-]`, the inhibition is inactive: 19.8%.

As for `CCOc1ccc(C2=NCC(CBr)S2)cc1` (stereo not drawn), the inhibition is inactive: 0.71%.

With `O=P1(Nc2nc3ccc(Cl)cc3s2)COc2ccccc2O1` (stereo not drawn), the inhibition is inactive: -0.01%.

For the molecule `CC(=O)Nc1ccc(Oc2c([N+](=O)[O-])cc([N+](=O)[O-])cc2[N+](=O)[O-])cc1`, the inhibition is inactive: 20.1%.

Turning to `CC(=O)Nc1ccc([As](=O)(O)O)c(O)c1`, the inhibition is inactive: -2.08%.

For `C[C@@H]1C=CCP(=O)(Oc2ccccc2)O1` (stereo partly drawn), the inhibition was inactive: 2.7%.

On to `C[C@H]1OP(=O)(Oc2ccccc2)C[C@@H]2O[C@@H]21` (stereo partly drawn), for which the inhibition was inactive: 2.52%.

Turning to `Cc1ccccc1CN(C)C(=O)COC(=O)C(O)(c1ccccc1)c1ccccc1`, the inhibition is inactive: 17.4%.

Turning to `COC(=O)C1(C)COP(=O)(NCc2ccccc2)OC1` (stereo not drawn), the inhibition is inactive: 2.43%.

For the molecule `N#C/C(=C\c1ccc(N(CCBr)CCBr)cc1)C(N)=O`, the inhibition is inactive: 3.65%.

In the case of `CC(=O)c1ccc(N2CC2c2ccncc2)cc1` (stereo not drawn), the inhibition is inactive: -5.6%.

For `c1nnnn1CCn1cnnn1`, the inhibition was inactive: 2.88%.

As for `CC(C)C(=O)NC(Sc1ccccc1)C(Cl)(Cl)Cl` (stereo not drawn), the inhibition was inactive: 12.5%.

Consider `O=P(Nc1nccs1)(c1ccccc1)c1ccccc1`, for which the inhibition is inactive: 17.5%.

On to `C[C@H]1OP(=O)(Oc2ccccc2)[C@H](O)[C@H](O)[C@H]1N=[N+]=[N-]` (stereo partly drawn), for which the inhibition is inactive: -0.9%.

Consider `O=P(Nc1nc2ccccc2s1)(c1ccccc1)c1ccccc1`, for which the inhibition is inactive: 2.34%.

Regarding `O=P(Nc1ccccn1)(c1ccc(Br)cc1)c1ccc(Br)cc1`, the inhibition is inactive: 9.22%.

On to `CN(C)C1(CNC(=O)c2ccc(Cl)c(S(N)(=O)=O)c2)CCCCC1`, for which the inhibition was inactive: 7.1%.

Take `COc1ccc(N)c([N+](=O)[O-])c1[N+](=O)[O-]`: the inhibition was inactive: 27.3%.

On to `O=C(OC1CN2CCC1CC2)c1cccc(Cl)c1` (stereo not drawn), for which the inhibition was inactive: 9.05%.

For `Nc1ccc([As](=O)(O)c2ccc([N+](=O)[O-])cc2)cc1`, the inhibition was inactive: -3.85%.

With `C(Cc1nn[nH]n1)Cc1nn[nH]n1`, the inhibition is inactive: 6.73%.

Regarding `O=[As](O)(c1ccccc1)c1ccc(O)cc1`, the inhibition is inactive: -0.9%.

In the case of `O=[N+]([O-])c1ccc(O)c(/C=N/Nc2ccc([N+](=O)[O-])cc2[N+](=O)[O-])c1`, the inhibition was active: 52.1%.

For `O=[N+]([O-])c1ncn(CCn2cnc([N+](=O)[O-])n2)n1`, the inhibition is inactive: -5.8%.

For `CC(=O)NC(SC(=S)N(C)C)C(Cl)(Cl)Cl` (stereo not drawn), the inhibition was inactive: 19.1%.

Regarding `CN(C)C1(CNC(=O)c2ccc(S(C)(=O)=O)cc2)CCCCC1`, the inhibition is inactive: 4.75%.

Regarding `CCCC1OP(=O)(Nc2ccccc2)OCC1CC` (stereo not drawn), the inhibition was inactive: 14.5%.

On to `O=C(/C=C/c1ccccc1)OC1CN2CCC1CC2` (stereo not drawn), for which the inhibition is inactive: 11.6%.

Consider `CC1CCC(C(C)C)C(OP(=O)(Nc2ccccn2)c2ccccc2)C1` (stereo not drawn), for which the inhibition is inactive: 13%.

As to `Cc1ccc(C(=O)OC2CN3CCC2CC3)cc1` (stereo not drawn), the inhibition was inactive: 2.39%.

As for `Cc1nn(-c2ccccc2)c2c1P(=O)(N1CCOCC1)N(C)C(c1ccccc1)=N2` (stereo not drawn), the inhibition is inactive: -3.75%.

For `Nc1cccc([As](=O)(O)c2ccccc2)c1`, the inhibition is inactive: -2.8%.

Turning to `O=P1(Nc2ccc(Br)cn2)COc2ccccc2OC1`, the inhibition is inactive: -4.36%.

As for `NS(=O)(=O)c1cccc(NC(=O)COC(=O)C(O)(c2ccccc2)c2ccccc2)c1`, the inhibition is inactive: 12.5%.

As to `O=[As](O)(c1cccs1)c1cccs1`, the inhibition is inactive: 11.3%.

With `Cc1ccc(OCC(=O)OC2CN3CCC2CC3)cc1` (stereo not drawn), the inhibition is inactive: 5.13%.

As for `O=P1(Nc2ncccn2)COc2ccccc2OC1`, the inhibition is inactive: -4.74%.

For the molecule `CC(C)(C)C(=O)NC(Sc1ncccn1)C(Cl)(Cl)Cl` (stereo not drawn), the inhibition was inactive: 4.13%.

Consider `Clc1n[nH]nc1-c1nn[nH][15n]1`, for which the inhibition is inactive: -20.4%.

For `CCOP(=O)(NC(=NC(C)c1ccccc1)NC(C)c1ccccc1)OCC` (stereo not drawn), the inhibition is inactive: 6.77%.

In the case of `O=P1(Nc2ccccn2)COc2ccccc2OC1`, the inhibition was inactive: -3.27%.

Consider `CCC1=CC2Cc3nc4ccc(Cl)cc4c(N)c3C(C1)C2` (stereo not drawn), for which the inhibition is inactive: 47%.

Turning to `CN(CCCl)Cc1cc(Cl)c(NC2=NCCN2)c(Cl)c1`, the inhibition is inactive: 3.82%.

Turning to `CCOP(=O)(Nc1ccc(C)cn1)OCC`, the inhibition was inactive: -10.8%.

Regarding `CC(C)/C=N\N=C(\N)N[N+](=O)[O-]`, the inhibition was inactive: 18.4%.

In the case of `CN(C(=O)Cc1ccc(Cl)c(Cl)c1)[C@@H]1CCCC[C@H]1N1CCCC1`, the inhibition was inactive: 2.73%.

Consider `CC1(CBr)Cn2c(nc3ccccc3c2=O)S1` (stereo not drawn), for which the inhibition is inactive: -15.4%.

As a reminder, the inhibition is the relative decrease from the control value, in per cent.
